Target: T1, Tau peptide encompassing residues 299-318 (human)
T1 construct: also called Tau protein (peptide)
T1 peptide: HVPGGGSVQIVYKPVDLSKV
Experiment: isothermal titration calorimetry, peptide in cell titrated with IgG, PBS pH 7.4, one set of sites model

B1: CBTAU-27.1 (antibody, V domains shown)
VH: QVQLVESGPEMRKPGESLKISCKTSGYIFSDYWTAWVRQLPGKGLQWMGIIYSGDSDTRYHPSVQGHVTMSTDSSLTTAYLQWSSLKASDTGIYYCARLDARVDAGWQLDSWGQGTLVTVSS
VL: DIQLTQSPDSLAVSLGERATINCKSSQSVFSRDNNKNYLAWYQHKSGQPPKLLFFWASSRESGVSDRFSGSGSGTDFTLTIDNLQAEDVALYYCQHYFNTPHNFGQGTKLEIK
- Kd: 0.675 µM

Source: US20210122810A1 (Janssen / Centocor, published 2021)
